{"source": "patent US20110077581A1", "about": "“TARGETED CELLULAR DELIVERY OF NANOPARTICLES” (GEORGIA TECH RESEARCH CORPORATION, priority 2009, published 2011)", "key": {"[1]": {"system": "ERα(−) MDA-MB-231 breast cancer cells", "assay": "Cell viability assay (MTT or XTT) in ERα(−) MDA-MB-231 breast cancer cells", "type": "cell-based, human", "conditions": "MDA-MB-231, highest concentrations and incubation times used", "method": "Cell culture and nanoparticle incubation. ERα(−) MDA-MB-231 and ERα(+) MCF-7 breast cancer cells (human adenocarcinoma, ATCC) or ERα(+) human squamous cell carcinoma (43-45) (HSC-3) cells were cultured to 10^5 cells/cm^2 in DMEM growth media supplanted with 10% v/v heat-inactivated fetal bovine serum, penicillin (100 U/ml), streptomycin (100 μg/ml), 4.5 g/L glucose, […], without L-glutamine and phenol red at 37° C. in a 5% CO2 humidified atmosphere. Growth media was removed from the cell cultures and replaced with identical media containing gold nanoparticle conjugates heated to 37° C. at time=0 h.\nCell viability assay. Following incubation, growth media containing gold nanoparticle conjugates was removed and cells were rinsed twice in sterile Dulbecco's phosphate buffered saline (DPBS). Mitochondrial dehydrogenase activity was assessed by MTT or XTT spectrophotometric assay (Sigma TOX1, TOX2) following the manufacturer's instructions. The assay was performed using a SpectraMax Plus 384 microplate reader and statistical analysis was performed by t-test."}, "[2]": {"system": "MCF-7 cells", "assay": "In vitro laser photothermal therapy of MCF-7 cells", "conditions": "MCF-7, 0.5 μM, 24 h"}}}
{"substance": "Thiol-pegylated tamoxifen [TAM-PEG-SH]", "values": [{"measurement": "cytotoxic effects", "setting": "[1]", "value": "cytotoxic effects were not observed"}, {"measurement": "in vitro cytotoxicity in the absence of laser treatment", "setting": "[2]", "value": "no appreciable in vitro cytotoxicity"}]}
